Earlier results, collected in patent US20250283018A1, “TOILET RIM BLOCKS WITH SCENT CHANGE” (SYMRISE AG, priority 2021, published 2025).

[1] = Table 3, components of POWER PLATIN

CC(=O)OC1CCCCC1C(C)(C)C (centres unmarked) [AGRUMEX LC]
logP (Table 1, components of MARINA): 4.42
logP (Table 2, components of PEACH): 4.42
logP [1]: 4.42

CCCCCC(=O)OCC [ETHYLCAPRONAT]
logP (Table 2, components of PEACH): 2.83

C=CCCC(=O)C(=C)C1CCCCC1 [PHARAONE 10% DPG]
logP [1]: 4.56

Read-outs that look alike come from different tables or passages of the source.
